The conditions of the series: 10 parts in 90 parts of water at room temperature (25° C.).

polypropylene glycol diglycidyl ether displayed a water solubility rate of 31 % by mass.

The values above are taken from patent US20210292586A1, “AQUEOUS INK FOR INKJET RECORDING” (KAO CORPORATION, priority 2018, published 2021).
